Experiments:
[1] = in vivo
[2] = human, in vivo
[3] = in vivo; remark: listed apart in the source
albumin = details: cited from earlier work
Protocol: The therapeutic target often consists of a Cmin value of 10 mg/L,[9] although higher trough concentrations of 15 or 20 mg/L can be desired in severe infections. […] Note that renal function expressed as eGFR was not found to have an impact on CLKRT, consistent with the results of Aulin et al.[19] […] The model predicts an increase in 0.016 L/h and 0.19 L, respectively, for an increment of 1 kg of body weight.

[4] = human, in vivo; cited from earlier work

teicoplanin
CLD (intercompartmental clearance), θCLD [1]: 0.292 L/h
CLD, fixed effect estimate [1]: 0.29 L/h
CLKRT (haemofilter clearance), θCLKRT [1]: 0.119 L/h
CLKRT lower than CLR [1]: 30%
CLKRT, fixed effect estimate [1]: 0.11 L/h
CLR (renal clearance), θCLR [1]: 0.169 L/h
CLR in patients with CKRT [1]: ^aCLR in patients with CKRT was estimated to be zero.
CLR, fixed effect estimate [1]: 0.17 L/h
V1 (apparent volume of distribution of the central compartment), θV1 [1]: θV1=1.56(17) L
V1, fixed effect estimate [1]: 1.49 L
V2 (apparent volume of distribution of the peripheral compartment), θV2 [1]: θV2=3.03(30) L
V2, fixed effect estimate [1]: 2.97 L
individual estimates of CLKRT [1]: 0.099 to 0.598 L/h
model-predicted increase in CLR for an increment of 1 kg of body weight [1]: 0.016 L/h
model-predicted increase in V1 for an increment of 1 kg of body weight [1]: 0.19 L
θFILT_Large, factor on CLKRT [1]: 5.04
θFILT_Med, factor on CLKRT [1]: 3.58
patients reaching target trough concentration (Cmin) of 10 mg/L [2]: 59%
adverse effect, including nephrotoxicity or hepatotoxicity, from the treatment [3]: No patient experienced any adverse effect
bound to albumin (albumin): > 90%
KD, dissociation constant of the drug–albumin complex (albumin; critically ill paediatric patients, population model estimate, ref Aulin et al., 19): 64.2 µg/mL
V1, values reported in the literature [4]: 2.07 to 2.28 L
renal clearance, published range [4]: 0.105 to 0.176 L/h
